From patent US20140294863A1, “SERUM ALBUMIN BINDING PEPTIDES FOR TUMOR TARGETING” (GENENTECH, INC., priority 2002, published 2014)

Columns and labels:
[1] = Pharmacokinetics of AB.Fab variants in mice (HER2 Binding ELISA); assay type: in vivo; conditions: Mouse, group mean profile
Protocol: All pharmacokinetic (PK) studies were conducted according to protocols approved by the Institutional Animal Care and Use Committee at Genentech, Inc. Sprague Dawley rats were supplied by Charles River Laboratories (Hollister, Calif. USA). New Zealand White (NWZ) rabbits were supplied by Myrtle's Rabbitry (Thompson Station, Tenn. USA). BALB-c mice were supplied by Charles River (Hollister, Calif. USA).
Over the course of 7 days serum was collected in 3 mice per time point by retro-orbital bleed or cardiac stick.
All serum and plasma samples were assayed for 4D5-Fab or AB.Fab variant concentrations using a HER2 Binding ELISA. Briefly, samples were added to microtiter wells coated with HER2ecd and incubated for 2 hours at room temperature. The wells were washed, and goat anti-huFab-HRP was added and incubated for 1 hour at room temperature. Unbound HRP was removed by washing and enzyme substrate was added to detect bound HRP. […] Concentrations of AB.Fab were extrapolated by comparison to a standard curve of the dosed molecule.
In mice, a group mean serum concentration versus time profile was determined, producing one estimate for pharmacokinetic parameters for each AB.Fab dosing group. […] AB.Fab variant 4D5-H8 was fit to a one compartment model and estimates for the PK parameters of AUC, CL, Half-Life (t1/2) and V1 were determined using WinNonlin® software (Pharsight, Inc., supra).

[2] = Pharmacokinetics of AB.Fab variants in rabbits (HER2 Binding ELISA); assay type: in vivo, rabbit
albumin and HER2 = experiment: Simultaneous binding to immobilized albumin and biotinylated HER2; conditions: FIG. 12
Protocol: To further characterize the binding of the fusion constructs, the HER2 antigen was labeled with biotin. Briefly, the fusion construct was added to albumin coated microtiter plates. Biotinylated HER2 antigen was added to the solution, and incubated. The plates were washed and analyzed for bound biotin.

Which AUC [1] does the source give for “Fab4D5: anti-HER2 Fab fragment without albumin binding peptide; the Fab portion of Herceptin (trastuzumab)” here?
The AUC was 20900 ng·h/mL.

And the CL [1]?
The CL was 3.98 mL/min/kg.

What about the V1 [1] of the same substance?
The V1 was 0.0368 L/kg.

What about the Vss [1] of the same substance?
The Vss was 0.0686 L/kg.

And the t1/2β ([1]; 4D5-H8 fit to one-compartment model (one half life estimate))?
The t1/2β was 1.28 h.

What about the AUC in rabbits ([2]; 0.5 mg/kg IV bolus) of the same substance?
Its AUC in rabbits is 8750 ± 1050 ng·h/mL.

What about the clearance in rabbits ([2]; 0.5 mg/kg IV bolus) of the same substance?
The clearance in rabbits was 1.01 mL/min/kg.

What about the AUC ([2]; Rabbit, group mean) of the same substance?
Its AUC is 8750 ± 1050 ng·h/mL.

What about the CL ([2]; Rabbit, group mean) of the same substance?
Its CL is 1.01 ± 0.123 mL/min/kg.

And the V1 ([2]; Rabbit, group mean)?
The V1 was 0.0517 ± 0.00107 L/kg.

What about the Vss ([2]; Rabbit, group mean) of the same substance?
Its Vss is 0.122 ± 0.00557 L/kg.

What about the t1/2β ([2]; Rabbit, group mean) of the same substance?
Its t1/2β is 5.98 ± 0.209 h.

What about the “simultaneous binding of immobilized albumin and biotinylated HER2” value (albumin and HER2) of the same substance?
Its value is “failed to bind albumin”.
